{"source": "patent US20030114375A1", "about": "“Method for treating cystic fibrosis” (The Government of the USA, Dept of Health and Human …, priority 1994, published 2003)", "tested_on": "CFPAC cells", "assay": "[36Cl]- efflux from CFPAC cells", "data": [{"smiles": "Cn1c(=O)c2[nH]c(C3CCCCC3)nc2n(C)c1=O", "values": [{"measurement": "thresh (nM): minimum concentration required to detect an effect upon chloride efflux", "value": 0.1, "unit": "nM"}]}]}
